Test results as given in PubChem BioAssay AID588579 (National Center for Advancing Translational Sciences (NCATS), 2011).
The entries are a selection whose mix differs from that of the whole data set. Some of these compounds have results that are not shown, active ones among them. Inconclusive results are not listed. The source made the active and inactive calls. Calls come from the whole dose curve; as a rule, active = well fitted inhibition curve with a large enough effect; inconclusive = small, poorly fitted or top-dose-only effect, or another doubt; inactive = no such curve, though single readings can be large or run the other way.

The chains behind the UniProt entries cited, without tags or fusion partners.
UniProt Q9UBT6, whole entry: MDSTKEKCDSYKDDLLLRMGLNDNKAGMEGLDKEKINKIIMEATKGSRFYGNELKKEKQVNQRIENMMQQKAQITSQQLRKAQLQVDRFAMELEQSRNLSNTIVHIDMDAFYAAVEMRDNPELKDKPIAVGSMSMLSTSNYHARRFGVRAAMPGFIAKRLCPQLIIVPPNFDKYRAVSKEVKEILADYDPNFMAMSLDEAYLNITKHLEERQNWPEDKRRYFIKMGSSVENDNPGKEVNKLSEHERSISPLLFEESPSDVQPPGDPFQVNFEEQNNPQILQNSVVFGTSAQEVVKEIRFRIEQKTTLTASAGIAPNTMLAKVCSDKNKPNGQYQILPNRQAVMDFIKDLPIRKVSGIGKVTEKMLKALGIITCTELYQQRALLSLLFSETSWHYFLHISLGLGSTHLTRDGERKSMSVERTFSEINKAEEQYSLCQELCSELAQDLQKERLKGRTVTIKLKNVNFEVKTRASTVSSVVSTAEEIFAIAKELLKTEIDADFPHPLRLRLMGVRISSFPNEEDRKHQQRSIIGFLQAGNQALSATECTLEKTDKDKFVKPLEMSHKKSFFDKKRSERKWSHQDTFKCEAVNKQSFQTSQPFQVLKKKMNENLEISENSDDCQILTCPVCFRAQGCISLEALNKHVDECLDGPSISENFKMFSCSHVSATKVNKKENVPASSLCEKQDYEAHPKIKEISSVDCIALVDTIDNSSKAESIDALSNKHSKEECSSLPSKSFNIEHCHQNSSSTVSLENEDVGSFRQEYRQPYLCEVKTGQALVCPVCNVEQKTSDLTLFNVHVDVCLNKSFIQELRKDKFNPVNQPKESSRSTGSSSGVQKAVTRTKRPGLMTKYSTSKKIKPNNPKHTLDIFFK

Biological target: DNA polymerase kappa (Homo sapiens) (UniProt Q9UBT6)
Test: qHTS for Inhibitors of Polymerase Kappa
Conditions: purified Pol kappa, fluorescent DNA synthesis assay, 10 min; at 107 µM (top of the series)
Method: The processing and repair of DNA interstrand crosslinks (ICL) in eukaryotic cells are extremely complex, potentially involving multiple DNA repair and damage tolerance pathways, including homologous recombination, nucleotide excision repair, translesion synthesis (TLS), and cell cycle checkpoints.
To that end, in a collaboration between the Oregon Health & Science University and the NIH Chemical Genomics Center a 1536-well high-throughput screen was developed. This fluorescent screen was assayed against the NIH Molecular Libraries Small Molecule Repository (MLSMR) to discover inhibitors of Pol Kappa.
NIH Chemical Genomics Center [NCGC]
NIH Molecular Libraries Probe Centers Network [MLPCN]
Assay Submitter (PI): Stephen Lloyd, Oregon Health & Science University
Three microliters of reagents (buffer in column 3 and 4 as negative control and 10 nM Pol kappa in columns 1, 2, and 5-48) were dispensed into a 1536-well black solid-bottom plate. Compounds (23 nL) were transferred via Kalypsys pin tool equipped with 1536-pin array. The plates were then incubated for 15 min at room temperature, and 1 uL substrate (50 nM final concentration) were then added to start the reaction and kinetically read twice at 0 min and 10 min on the Viewlux reader
% is set by controls: 0 for no effect and ±100 for the full control effect.

SMILES | activity, negative = inhibition
O=C(CBr)c1ccc(Cl)cc1 | inactive: -7.5%
C=CCN1CCN(CCOC(=O)C(O)(c2ccccc2)c2ccccc2)CC1 | inactive: 11%
CC(C)N1C(=O)CC2(CCN(CCOC(=O)C(O)(c3ccccc3)c3ccccc3)CC2)C1=O | inactive: -6.61%
